Target: κ-opioid receptor (Homo sapiens (Human), UniProt P41145)
Assay: κ-opioid receptor radioligand dose-displacement binding assay ([3H]-U69,593)
Details: read-out: Ki (nM) Opioid Receptor κ; binding affinity, [3H]-U69,593 displacement
Protocol: κ-Opioid Receptor Binding Assay Procedures: Membranes from HEK-293 cells, CHO or U-2 OS cells expressing the recombinant human kappa opioid receptor (κ) were prepared by lysing cells in ice cold hypotonic buffer (2.5 mM MgCl2, 50 mM HEPES, pH 7.4) (10 mL/10 cm dish) followed by homogenization with a tissue grinder/Teflon pestle. Membranes were collected by centrifugation at 30,000×g for 15 min at 4° C. and pellets were resuspended in hypotonic buffer to a final concentration of 1-3 mg/mL. Protein concentrations were determined using the BioRad protein assay reagent with bovine serum albumen as standard, Aliquots of κ receptor membranes were stored at […].
Radioligand dose displacement assays used 0.4 nM [^3H]-U69,593 (GE Healthcare, Piscataway, N.J.; 40 Ci/mmole) with 15 μg membrane protein (recombinant κ opioid receptor expressed in HEK 293 cells; in-house prep) in a final volume of 200 μl binding buffer (5% DMSO, 50 mM Trizma base, pH 7.4). Non-specific binding was determined in the presence of 10 μM unlabeled naloxone or U69,593. All reactions were performed in 96-well polypropylene plates for 1 hour at a temperature of about 25° C. […] Fifty μl/well scintillation cocktail (Perkin Elmer, Shelton, Conn.) was added and plates were counted in a Packard Top-Count for 1 min/well.

Protein sequences, listed by entry. Tags and fused reporters are not part of them.
UniProt P41145, whole entry: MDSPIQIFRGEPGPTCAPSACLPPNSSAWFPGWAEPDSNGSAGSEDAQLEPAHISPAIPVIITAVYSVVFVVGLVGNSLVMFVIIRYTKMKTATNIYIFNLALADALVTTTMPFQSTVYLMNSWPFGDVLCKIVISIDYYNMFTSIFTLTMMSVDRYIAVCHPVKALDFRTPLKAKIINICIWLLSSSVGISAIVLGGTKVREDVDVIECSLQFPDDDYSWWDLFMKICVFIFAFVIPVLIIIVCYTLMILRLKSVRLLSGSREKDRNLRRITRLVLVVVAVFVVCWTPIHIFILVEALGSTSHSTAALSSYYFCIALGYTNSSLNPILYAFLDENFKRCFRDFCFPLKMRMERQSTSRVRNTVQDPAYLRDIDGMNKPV

SMILES: COc1ccc2c(c1)[C@]13CCN(CC4CC4)[C@H](C2)[C@]1(O)Cc1cc(C(=O)O)c(=O)[nH]c1C3
- Ki: 728 nM

— patent publication US8980906B2, “Pyridonemorphinan analogs and biological activity on opioid receptors” (Purdue Pharma L.P., priority 2012, dated 2015)
